Test results published in paper PMC5802278, “Molecular and cellular mechanisms of HIF prolyl hydroxylase inhibitors in clinical trials” (Chemical Science, 2017).

Amino acid sequences for entries named in this document (tags omitted). Residues count along the entry.
UniProt Q9GZT9, 181-426: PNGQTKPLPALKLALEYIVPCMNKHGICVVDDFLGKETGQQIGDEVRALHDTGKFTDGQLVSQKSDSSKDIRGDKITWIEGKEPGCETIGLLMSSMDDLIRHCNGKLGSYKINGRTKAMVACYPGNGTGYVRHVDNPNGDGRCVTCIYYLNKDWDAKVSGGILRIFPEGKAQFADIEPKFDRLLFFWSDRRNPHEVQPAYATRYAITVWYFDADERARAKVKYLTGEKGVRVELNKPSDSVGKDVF

Columns and labels:
Format in all cases: biochemical
PHD2 [1] = target: T1, PHD2 (Homo sapiens, UniProt Q9GZT9); assay: MALDI-TOF MS PHD hydroxylation assay
Procedure: Protocols for in vitro PHD1–3 MALDI-TOF MS hydroxylation assays[30] and for the AlphaScreen histone demethylase assays[44] were as reported.
Although sharing homologous C-terminal catalytic domains, the N-terminal regions of PHD1–3 vary. […] In vitro inhibition assays of the clinical trial PHD inhibitors (and some of their structurally related analogue) against 1 μM recombinant human PHD1–3 were performed.
Fig. S11. In vitro PHD isoform selectivity profiling of PHD inhibitors. Inhibition of PHD inhibitors against human PHD125 -3 as assayed by MALDI-TOF MS (the protocol is described in Chan et al. ). Eight concentrations were used to obtained dose-response curve for each compound. Data points presented in the graph are mean with standard deviation, n=3. IC50 […]
(1 picture or pasted object on this page, not shown here)

PHD2 [2] = target: T1, PHD2; assay: LC-MS based RapidFire PHD2 hydroxylation assay
[3] = target: PHD2 catalytic domain (residues 181-426) (Homo sapiens, UniProt Q9GZT9); assay: AlphaScreen antibody based PHD2 assay (HIF-1α CODD peptide hydroxylation); design: 10 nM PHD2 (catalytic domain, residues 181–426); made in house
Procedure: AlphaScreen antibody based PHD assays were as reported[39] using 384-well white ProxiPlates™ (PerkinElmer). Reactions were performed in 50 mM HEPES buffer pH 7.5, 0.01% Tween-20 and 0.1% BSA in a final volume of 10 μL at room temperature. […] The luminescence signal was measured using an Envision (Perkin Elmer) plate reader. Data were analyzed utilizing GraphPad prism.

O=C(O)CNC(=O)c1ncc(-c2cccc(Cl)c2)cc1O [Vadadustat]
pIC50 (PHD2 [1]): 5.64
pIC50 (PHD2 [2]): 5.88
pIC50 [3]: 7.54

pIC50: −log10 of the molar value.
